In ChEMBL document CHEMBL1140067, “Synthesis, in vitro, and in vivo biological evaluation and molecular docking simulations of chiral alcohol and ether derivatives of the 1,5-diarylpyrrole scaffold as novel anti-inflammatory and analgesic agents” (Bioorg Med Chem, 2008):

Target: T1, Prostaglandin G/H synthase 2 (Mus musculus, UniProt Q05769)
T1 sequence (Q05769 whole entry): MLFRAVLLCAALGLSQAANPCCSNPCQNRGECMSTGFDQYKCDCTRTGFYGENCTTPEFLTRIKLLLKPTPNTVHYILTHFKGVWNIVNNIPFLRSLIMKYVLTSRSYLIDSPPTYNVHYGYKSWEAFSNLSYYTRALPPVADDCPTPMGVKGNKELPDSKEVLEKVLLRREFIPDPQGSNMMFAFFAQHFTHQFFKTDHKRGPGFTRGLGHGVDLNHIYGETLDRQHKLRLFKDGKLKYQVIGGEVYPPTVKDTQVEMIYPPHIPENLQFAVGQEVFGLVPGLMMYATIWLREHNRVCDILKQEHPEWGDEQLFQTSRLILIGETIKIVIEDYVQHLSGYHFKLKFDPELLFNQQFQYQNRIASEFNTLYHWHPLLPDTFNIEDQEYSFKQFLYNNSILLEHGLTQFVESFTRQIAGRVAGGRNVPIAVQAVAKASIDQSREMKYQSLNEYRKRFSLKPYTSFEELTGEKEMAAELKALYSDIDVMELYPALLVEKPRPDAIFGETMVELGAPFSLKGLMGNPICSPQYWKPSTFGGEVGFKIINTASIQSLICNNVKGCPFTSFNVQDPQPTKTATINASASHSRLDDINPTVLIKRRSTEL

| IC50 | SMILES |
| --- | --- |
| 120 nM | CCOC(=O)C(O)c1cc(-c2ccc(S(C)(=O)=O)cc2)n(-c2ccc(OC)cc2)c1C (racemic) |
| 300 nM | CCOC(=O)C(O)c1cc(-c2ccc(S(C)(=O)=O)cc2)n(-c2ccccc2)c1C (racemic) |
